ChEMBL document CHEMBL4706491, “Discovery of novel N-sulfonamide-tetrahydroquinolines as potent retinoic acid receptor-related orphan receptor γt inverse agonists for the treatment of autoimmune diseases” (Eur J Med Chem, 2020)
Active and inactive are the calls of the source. No cut-off for these calls is given here.

Protein sequences, listed by entry. Tags and fused reporters are not part of them. Lines headed by an entry give the natural chain unless they say otherwise; changes in a name come on top.
UniProt P51449: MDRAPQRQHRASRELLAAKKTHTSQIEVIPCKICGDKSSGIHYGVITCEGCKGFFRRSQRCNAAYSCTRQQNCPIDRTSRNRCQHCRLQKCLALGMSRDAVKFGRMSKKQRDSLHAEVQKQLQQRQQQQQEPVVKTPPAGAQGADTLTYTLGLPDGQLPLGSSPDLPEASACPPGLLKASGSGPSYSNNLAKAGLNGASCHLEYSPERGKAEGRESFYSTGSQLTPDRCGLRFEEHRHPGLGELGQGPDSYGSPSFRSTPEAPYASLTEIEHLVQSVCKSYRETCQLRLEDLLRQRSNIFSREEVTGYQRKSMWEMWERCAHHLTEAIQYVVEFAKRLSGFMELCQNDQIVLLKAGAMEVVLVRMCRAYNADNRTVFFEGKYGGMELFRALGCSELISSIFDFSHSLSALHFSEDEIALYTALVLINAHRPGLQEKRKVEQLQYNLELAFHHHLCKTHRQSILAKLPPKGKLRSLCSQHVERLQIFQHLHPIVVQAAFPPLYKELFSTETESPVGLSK

Columns and labels:
[1] = target: Nuclear receptor ROR-gamma (Homo sapiens, UniProt P51449); assay: Agonist activity at APC-labeled RORgammat LBD (unknown origin) incubated for 1 hr in presence of europium-labeled co-activator SRC1 by FRET assay relative to control; conditions: filed as agonist
Mus musculus = assay: Antiinflammatory activity against imiquimod-induced psoriasis BALB/c mouse model assessed as body weight loss at 0.02 % applied topically once daily for 12 days; format: functional, organism-based; conditions: time 12.0 day

Row | SMILES | Efficacy [1] | Activity (Mus musculus)
1 | CC(=O)N1CCN(c2ccc3c(c2)CCCN3S(=O)(=O)N(C)CCc2ccccc2)CC1 | 41% | 
2 | C[C@H]1C[C@H]2[C@@H]3CCC4=CC(=O)C=C[C@]4(C)[C@@]3(F)[C@@H](O)C[C@]2(C)[C@@]1(O)C(=O)CCl |  | inactive
3 | CC(=O)N1CCN(c2ccc3c(c2)CCCN3S(=O)(=O)c2ccccc2)CC1 | 83.5 µM | 
